From US7338948B2, “Use of quetiapine” (AstraZeneca AB, priority 2000, dated 2008)

Legend:
[1] = tested on: Conduct Disorder, Childhood Onset, Moderate Severity and Attention Deficit Hyperactivity Disorder (ADHD), Combined Type; assay: Case report: patient with Conduct Disorder and ADHD treated with successive drugs; details: lithium up to 1125 mg/day with olanzapine 20 mg daily
[2] = Drug level printed in brackets after the dose in the case report; details: lithium up to 1125 mg/day

[Li] [lithium]
side effect other than weight gain [1]: mild intentional tremor | side effect: weight gain (increase) [1]: 32 lb. | drug level [2]: 1.7 ng/mL
